Compound activity deposited in PubChem BioAssay by National Center for Advancing Translational Sciences (NCATS).
LMNA splice mod: qHTS Assay for Modulators of Lamin A Splicing; HeLa LMNA splicing GFP/RFP minigene ratio, 48 h; AID 1487, 2009; hit rate 0.01% among 200,000; Potency, µM (doses to about 46.1 µM), inactives show at the highest dose ratio change, negative = inhibition, actives largely listed as inhibitors; active = well fitted inhibition curve with a large enough effect in the signal ratio, with a control signal flat, not every such curve was filed as active; inconclusive = small, poorly fitted or top-dose-only effect, or effect the other way, or a change in a side signal; the % refers to the signal ratio; note: % is set by controls: 0 for no effect and ±100 for the full control effect
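S3 HeLa cells stably expressing lamin A-EGFP splicing minigene plus DsRed2, 600 cells/well, 48 h compound exposure at 37C. Laser-scanning cytometry; analysed as GFP (500-530 nm)/RFP (575-640 nm) total intensity ratio; 0.5% DMSO vehicle.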
Rango release inh: qHTS Assay for Inhibitors of RanGTP induced Rango (Ran-regulated importin-beta cargo) - Importin beta complex dissociation; Biochemical FRET Rango-importin beta, RanGTP-induced dissociation; Potency, µM (titrated, usually from 46.1 µM), for the others: at the top dose activity change, negative = inhibition; hit rate 0.071% among 340,000; Snurportin-1 (Homo sapiens) + GTP-binding nuclear protein Ran (Homo sapiens) + Importin …; note: % of control where 0% means no effect; nearly all actives have a fitted effect of over 45% in size
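Rango (0.1 uM)–importin beta (0.25 uM) complex; RanGTP-RCC1 trigger; 45 min RT; CFP/YFP FRET read.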
Rango complex inh: qHTS Assay for Inhibitors of Rango (Ran-regulated importin-beta cargo) - Importin beta complex formation. Importin subunit beta-1 (Homo sapiens), Q14974. Rango CFP/YFP FRET sensor + importin beta, 45 min. Potency, µM (top dose mostly 92.2 µM), for inactives: at the highest dose inhibition of complex formation. hit rate 0.031% among 340,000. AID 540263, 2011;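 note: 0% = DMSO wells and 100% = buffer wells lacking importin beta; nearly all actives have a fitted effect of over 15% in size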
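FRET biosensor Rango (snurportin 1 IBB between N-terminal EYFP and C-terminal Cerulean), 50 nM in PBS/1 mM DTT/0.02% Tween-20/0.1% BSA, preincubated 5 min RT with compound; 0.125 microM importin beta added, 45 min RT, CFP/YFP FRET ratio read.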
Active calls of the source: *; ? = inconclusive; . = no result given; [ ] = dose if it differs, or a comment. Hits are enriched below; roughly 0.1% of the tested compounds scored in any of these assays. Unless noted, calls come from the whole dose curve. Potency is the fitted concentration of half-maximal effect.

By UniProt entry, the sequences of proteins in these tests, tags left out.
Importin subunit beta-1 (Homo sapiens), Q14974, UniProt Q14974, whole entry, looked up: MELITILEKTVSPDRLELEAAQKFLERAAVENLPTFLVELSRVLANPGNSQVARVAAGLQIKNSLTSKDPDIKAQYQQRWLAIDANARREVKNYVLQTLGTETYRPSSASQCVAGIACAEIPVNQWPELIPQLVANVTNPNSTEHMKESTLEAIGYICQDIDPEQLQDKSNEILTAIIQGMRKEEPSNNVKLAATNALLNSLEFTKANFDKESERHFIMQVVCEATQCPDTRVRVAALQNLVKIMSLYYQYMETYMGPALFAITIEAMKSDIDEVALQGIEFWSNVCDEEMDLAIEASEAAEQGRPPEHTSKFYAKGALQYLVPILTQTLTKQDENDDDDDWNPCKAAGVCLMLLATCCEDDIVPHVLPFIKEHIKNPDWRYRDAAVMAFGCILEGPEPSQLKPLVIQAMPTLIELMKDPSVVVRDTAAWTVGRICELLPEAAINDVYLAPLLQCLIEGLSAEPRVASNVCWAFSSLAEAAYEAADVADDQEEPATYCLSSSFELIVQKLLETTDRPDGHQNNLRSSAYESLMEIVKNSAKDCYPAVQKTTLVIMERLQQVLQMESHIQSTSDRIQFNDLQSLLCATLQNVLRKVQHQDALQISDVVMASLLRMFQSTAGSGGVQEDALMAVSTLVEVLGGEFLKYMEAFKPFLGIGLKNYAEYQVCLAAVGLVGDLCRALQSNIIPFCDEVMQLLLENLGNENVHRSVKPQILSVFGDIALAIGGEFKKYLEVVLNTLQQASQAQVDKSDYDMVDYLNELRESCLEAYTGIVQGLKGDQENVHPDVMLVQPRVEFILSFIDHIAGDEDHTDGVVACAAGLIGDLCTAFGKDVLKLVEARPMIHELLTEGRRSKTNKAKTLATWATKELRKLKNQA

LMNA splice mod | Rango release inh | Rango complex inh | compound
. | 2% | 0% | O=S(=O)(c1ccc2c(c1)OCCO2)N1CCN(S(=O)(=O)c2c(F)cc(F)cc2F)CC1
-9% | ? | ? | CC1=CC(c2ccc(Cl)cc2)n2nc(N3C(=O)CCC3=O)nc2N1 (configuration not stated)
3% | 18µM* | ? | COc1ccc(C2C=C(C)Nc3nc(SC)nn32)cc1 (configuration not stated)
-4% | 8% | -1% | Cc1cccc(C(=O)NNC(=O)CN2C(=O)c3ccccc3C2=O)c1
-4% | 16µM*[inhibitor] | ? | COc1ccc(N2C(=O)/C(=C/c3cccs3)NC2=S)cc1
. | 15% | -1% | CN(C)/C=C1\NC(=S)N(c2ccccc2)C1=O
. | 15µM* | -1% | O=C(CCN1C(=O)/C(=C/c2ccccc2)SC1=S)Nc1ccccn1
-7% | 7% | 1% | Cc1ccc(/C=C2\SC(=S)N(CCCC(=O)Nc3ccccn3)C2=O)cc1
. | 7% | -2% | O=C(Nc1ccc(Br)cc1Cl)c1ccc2c(=O)n3c(nc2c1)CCC3
. | 16µM* | ? | O=C(C1=C(O)C(=O)N(c2nc3ccc(Cl)cc3s2)C1c1ccco1)c1ccco1 (configuration not stated)
. | ? | -3% | Cc1cc(N2C(=O)C(O)=C(C(=O)c3ccco3)C2c2cccc(O)c2)no1 (configuration not stated)
. | 26µM* | ? | Cc1cc(C)c2nc(N3C(=O)C(O)=C(C(=O)c4ccco4)C3c3ccc(O)cc3)sc2c1 (configuration not stated)
2% | ? | ? | Cc1ccc(C2C(C(=O)c3ccco3)=C(O)C(=O)N2c2nnc(C)s2)cc1 (configuration not stated)
. | 4.1µM* | ? | Cc1cc(C)c2nc(N3C(=O)C(O)=C(C(=O)c4ccco4)C3c3cccc(O)c3)sc2c1 (configuration not stated)
. | -19% | ? | Cc1ccc2nc(N3C(=O)C(O)=C(C(=O)c4ccco4)C3c3ccc(C)o3)sc2c1 (configuration not stated)
. | -4% | -1% | Fc1cccc(CN2CCC(Cc3ccccc3)CC2)c1
. | -4% | 1% | CCN(CC)S(=O)(=O)c1ccc2c(c1)CC(C(=O)N1CCCC1)N2C(C)=O (configuration not stated)
. | -14% | -2% | N#Cc1c(-c2ccccc2)oc(=O)c2ccccc12
. | -11% | -3% | CN(C(=O)c1ccc(NC(=O)Cc2ccc(NC(=O)C3CCN(C(=O)C4CCCCC4)CC3)cc2)cc1)C1CC1
. | -9% | -3% | COc1cc2cc(CCCOC(=O)c3ccc(F)cc3)oc(=O)c2cc1OC

Two of the compounds above, field by field:
molecule: COc1cc2cc(CCCOC(=O)c3ccc(F)cc3)oc(=O)c2cc1OC
  LMNA splice mod = . | Rango release inh = -9% | Rango complex inh = -3%

molecule: N#Cc1c(-c2ccccc2)oc(=O)c2ccccc12
  LMNA splice mod = . | Rango release inh = -14% | Rango complex inh = -2%

(continued)
LMNA splice mod | Rango release inh | Rango complex inh | compound
-18% | . | . | CN1CC[C@@]23c4ccccc4N[C@H]1[C@]21CCN(C)[C@@H]3Nc2ccccc21
. | -29% | ? | Cc1cc(N/N=C/c2ccc(N(C)C)cc2)c2ccccc2n1
. | 15µM* | ? | Cc1cc(C)c2nc(C)cc(N/N=C/c3ccc(O)cc3)c2c1
. | 16% | 3% | O=C(c1ccc(=O)[nH]n1)N1CCN(S(=O)(=O)c2ccccc2F)CC1
. | -6% | 1% | O=C(CCC(=O)Nc1ccccc1Cl)NNC(=O)COc1ccc([N+](=O)[O-])cc1
. | -6% | -2% | C[N+](C)(CCOc1ccccc1)Cc1ccccc1
? | 8% | 65µM* | Cc1cc(C(C)(C)CC(C)(C)C)ccc1OCCOCC[N+](C)(C)Cc1ccccc1
. | -4% | 7% | CN1CCN(/N=C/c2c3ccccc3c(Cl)c3ccccc23)CC1
13% | 1% | 3% | O=C(Nc1cccc(C(F)(F)F)c1)C1CCCCC1
. | 16µM* | ? | C(=C\c1nccc2c1[nH]c1ccccc12)/c1ccccc1
-3%[46 µM] | ? | ? | Cc1ccc(/C=C\c2nccc3c2[nH]c2ccccc23)cc1
. | -5% | -1% | Cc1[nH]nc(NNC(=O)c2ccccc2)c1[N+](=O)[O-]
-4% | 11% | 3% | COc1ccc(CN2C(=O)c3ccccc3C2C(=O)NC2CCCC2)c(OC)c1 (configuration not stated)
? | 16% | -6% | Nc1ccc2c(c1Cl)C(=O)c1ccc(N)c(Cl)c1C2=O
. | 17% | 29µM* | Cc1ccc2c(c1C)-c1c(ccc(C)c1C)C(=O)C2=O
? | 6% | 65µM* | CCCCCCCCCCCCCCCC[N+](C)(C)CCN(Cc1ccc(OC)cc1)c1ncccn1

Part of the list above, bar-delimited.
canonical_smiles | LMNA splice mod | Rango release inh | Rango complex inh
Cc1cc(C)c2nc(C)cc(N/N=C/c3ccc(O)cc3)c2c1 | . | 15µM* | ?
O=C(c1ccc(=O)[nH]n1)N1CCN(S(=O)(=O)c2ccccc2F)CC1 | . | 16% | 3%
O=C(CCC(=O)Nc1ccccc1Cl)NNC(=O)COc1ccc([N+](=O)[O-])cc1 | . | -6% | 1%
